In paper PMC6265900:
pKi: −log10 of the molar value.

By UniProt entry, the sequences of proteins in these tests, tags left out. Where a name states a change or a piece, a line headed by the entry shows the natural chain unless it says otherwise.
UniProt P08246: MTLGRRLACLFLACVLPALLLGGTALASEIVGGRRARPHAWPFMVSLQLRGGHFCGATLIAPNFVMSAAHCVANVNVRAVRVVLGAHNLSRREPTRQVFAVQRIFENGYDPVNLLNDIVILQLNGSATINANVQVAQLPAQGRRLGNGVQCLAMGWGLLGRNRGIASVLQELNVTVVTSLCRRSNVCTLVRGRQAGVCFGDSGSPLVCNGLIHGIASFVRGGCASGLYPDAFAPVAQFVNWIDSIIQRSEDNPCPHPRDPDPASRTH

Key:
elastase = elastase (UniProt P08246); assay: enzyme inhibition with chromogenic substrate (Dixon plot); enzyme (FXIIa 10 nM, plasma kallikrein 80 nM, trypsin 800 nM, elastase 400 nM) incubated with 0.5, 1 and 2 uM native poecistasin in 60 uL of 50 mM Tris buffer pH 7.4 for 5 min, then 0.2 mM chromogenic substrate; absorbance at 405 nm for 10 min; Ki from Dixon plot
trypsin = assay: as above

native poecistasin (natural protein)
pKi (elastase): 6.26
pKi (trypsin): 8.03
